What was measured:
[1] = species on record: Homo sapiens; assay: Selectivity index, ratio of IC50 for human DNMT1 to IC50 for recombinant human N-terminal GST-tagged DOT1L (1 to 420 residues) expressed in Escherichia coli BL21 (DE3)
[2] = species on record: Homo sapiens; assay: Selectivity index, ratio of IC50 for human PRMT3 to IC50 for recombinant human N-terminal GST-tagged DOT1L (1 to 420 residues) expressed in Escherichia coli BL21 (DE3)
[3] = species on record: Homo sapiens; assay: Selectivity index, ratio of IC50 for human PRMT5 to IC50 for recombinant human N-terminal GST-tagged DOT1L (1 to 420 residues) expressed in Escherichia coli BL21 (DE3)
[4] = species on record: Homo sapiens; assay: Selectivity index, ratio of IC50 for human PRMT8 to IC50 for recombinant human N-terminal GST-tagged DOT1L (1 to 420 residues) expressed in Escherichia coli BL21 (DE3)

CC(C)(C)c1ccc(NC(=O)c2ncn(CC(=O)NCCn3ccc4c(N)ncnc43)n2)cc1
Ratio IC50 [1]: 250
Ratio IC50 [2]: 130
Ratio IC50 [3]: 175
Ratio IC50 [4]: > 250

Reference: ChEMBL document CHEMBL4680176, “Identification of DOT1L inhibitors by structure-based virtual screening adapted from a nucleoside-focused library” (Eur J Med Chem, 2020)
